Experimental findings from ChEMBL document CHEMBL6087467, “Probing the Histamine H1 Receptor Binding Site to Explore Ligand Binding Kinetics” (J Med Chem, 2025) are described below.

By UniProt entry, the sequences of proteins in these tests, tags left out.
UniProt P35367, whole entry: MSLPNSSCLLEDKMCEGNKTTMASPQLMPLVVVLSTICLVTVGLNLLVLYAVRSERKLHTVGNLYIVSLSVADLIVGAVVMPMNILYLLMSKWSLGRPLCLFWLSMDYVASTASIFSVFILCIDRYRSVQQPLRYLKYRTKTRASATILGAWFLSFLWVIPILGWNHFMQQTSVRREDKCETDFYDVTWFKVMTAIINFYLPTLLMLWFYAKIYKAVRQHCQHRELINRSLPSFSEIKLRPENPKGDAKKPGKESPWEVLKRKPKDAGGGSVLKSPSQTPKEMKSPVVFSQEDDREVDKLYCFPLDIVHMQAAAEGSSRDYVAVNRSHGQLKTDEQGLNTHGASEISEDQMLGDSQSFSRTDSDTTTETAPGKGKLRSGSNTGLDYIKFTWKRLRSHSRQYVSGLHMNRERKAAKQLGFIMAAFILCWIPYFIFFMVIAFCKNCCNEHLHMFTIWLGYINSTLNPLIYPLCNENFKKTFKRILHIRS

The target in experiment [1] is T1, Histamine H1 receptor (Homo sapiens, UniProt P35367). To be noted: HEK293T, time 4.0 hrs.
For experiment [2], the target named is T1, Histamine H1 receptor. In kind it is cell-based. To be noted: hek293t.
Experiment [3] has as its target T1, Histamine H1 receptor. To be noted: HEK293T, time 4.0 hrs. The source holds these as a separate data set.

With `Cc1ccc(/C(=C\CN2CCCC2)c2cccc(/C=C/C(=O)O)n2)cc1` [ACRIVASTINE], the Ka at Histamine H1 receptor [1] is 0.58 10^6/M/min. Further, at Histamine H1 receptor [2], the “Dissociation rate constant (koff)” value is 0.00112 s⁻¹. This molecule also showed a Retention time at Histamine H1 receptor [3] of 15 min.
